Laboratory results published in patent publication US8889732B2, “Fused heterocyclic compounds and thrombopoietin receptor activators” (Nissan Chemical Industries, Ltd., priority 2009, dated 2014).

Sequences of proteins named here, by UniProt entry; tags and fusion partners are left off. Residues count along the entry.
UniProt P40238, 26-635 limits assumed: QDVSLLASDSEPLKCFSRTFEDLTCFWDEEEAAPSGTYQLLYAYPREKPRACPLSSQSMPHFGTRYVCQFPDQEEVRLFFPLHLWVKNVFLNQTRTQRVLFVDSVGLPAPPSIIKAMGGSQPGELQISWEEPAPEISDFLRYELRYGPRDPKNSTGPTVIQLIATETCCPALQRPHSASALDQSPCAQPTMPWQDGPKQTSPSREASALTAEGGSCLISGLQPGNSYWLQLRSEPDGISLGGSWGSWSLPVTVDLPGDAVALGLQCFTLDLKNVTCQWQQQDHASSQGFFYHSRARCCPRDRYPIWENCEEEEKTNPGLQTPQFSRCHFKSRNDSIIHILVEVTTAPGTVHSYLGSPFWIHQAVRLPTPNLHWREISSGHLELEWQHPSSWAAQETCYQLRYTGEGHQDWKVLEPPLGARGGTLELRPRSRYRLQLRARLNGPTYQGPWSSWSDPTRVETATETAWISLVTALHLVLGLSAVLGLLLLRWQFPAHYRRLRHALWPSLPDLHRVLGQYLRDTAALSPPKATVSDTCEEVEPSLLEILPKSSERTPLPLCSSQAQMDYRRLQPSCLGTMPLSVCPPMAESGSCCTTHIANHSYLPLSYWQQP

Molecular target: human thrombopoietin receptor (c-mpl) (Homo sapiens, UniProt P40238)
Experiment: Stimulation of proliferation of thrombopoietin-dependent cell line UT7/EPO-mpl (WST-8)
Details: concentration yielding growth rate corresponding to 50% of growth of UT-7/EPO-mpl in the presence of 10 ng/mL TPO, 4 days incubation
Procedure: The responses of thrombopoietin receptor to the compounds of Synthetic Examples of the present invention were assayed using a human leukemic cell line, UT7/EPO-mpl.
UT7/EPO-mpl is a stable transformed cell line obtained by introducing into human leukemic cell line UT7/EPO a vector that induces expression of human thrombopoietin receptor (c-mpl) under control of cytomegalovirus immediate-early promoter by the method of Takatoku et al. (J. Biol. Chem., 272:7259-7263 (1997)). […] These two cell lines were subcultured in IMDM (Invitrogen) containing 10% fetal bovine serum (Thermo Electron or BioWest) using a CO2 incubator (5% CO2, 37° C.).
The subcultured cells described above were washed twice with PBS and suspended in IMDM containing 10% fetal bovine serum at a cell density of 6×10^4 cells/ml. The cell suspension was transferred to a 96-well tissue culture plate (CORNING) in 100-μl aliquots. Then either thrombopoietin (Pepro Tech EC) or the compound of Synthetic Examples dissolved in dimethyl sulfoxide were diluted 83-fold with IMDM containing 10% fetal bovine serum and added to the aforementioned cell suspension in 20-μl aliquots. The cell suspension was incubated in a CO2 incubator (5% CO2, 37° C.) for 4 days. […] The formazan pigment generated was detected by measuring the absorbance at 450 nm with a 96-well microplate reader (Nihon Molecular Devices, Spectramax 190). […]

## COC(=O)c1ccc(C(=O)N/N=C(\C)c2csc(-c3ccc4c(c3)CCCC4)c2O)cc1[N+](=O)[O-]
  EC50: 5.4 ng/mL
